Holding throughout (type): biochemical
The target in test [1] is T1, ENPP1 (Homo sapiens, UniProt P22413). In words: ENPP1 enzyme assay with AMP-pNP substrate (hydrolysis of ATP analog). Conditions: read-out: ENPP1 Inhibition _AMP-pNP: Ki, Ki from IC50 by Cheng-Prusoff.
Test [2] addresses T1, ENPP1. In words: Indirect quantitation of 2',3'-cGAMP hydrolysis (AMP-Glo Assay kit). The conditions noted are these: read-out: ENPP1 Inhibition -cGAMP: Ki; cGAMP substrate; Ki from IC50 by Cheng-Prusoff.
For test [3], the target named is T1, ENPP1. In words: Substrate selectivity ratio, inhibition of cGAMP hydrolysis versus ATP hydrolysis.

Amino acid sequences for entries named in this document (tags omitted).
UniProt P22413, whole entry: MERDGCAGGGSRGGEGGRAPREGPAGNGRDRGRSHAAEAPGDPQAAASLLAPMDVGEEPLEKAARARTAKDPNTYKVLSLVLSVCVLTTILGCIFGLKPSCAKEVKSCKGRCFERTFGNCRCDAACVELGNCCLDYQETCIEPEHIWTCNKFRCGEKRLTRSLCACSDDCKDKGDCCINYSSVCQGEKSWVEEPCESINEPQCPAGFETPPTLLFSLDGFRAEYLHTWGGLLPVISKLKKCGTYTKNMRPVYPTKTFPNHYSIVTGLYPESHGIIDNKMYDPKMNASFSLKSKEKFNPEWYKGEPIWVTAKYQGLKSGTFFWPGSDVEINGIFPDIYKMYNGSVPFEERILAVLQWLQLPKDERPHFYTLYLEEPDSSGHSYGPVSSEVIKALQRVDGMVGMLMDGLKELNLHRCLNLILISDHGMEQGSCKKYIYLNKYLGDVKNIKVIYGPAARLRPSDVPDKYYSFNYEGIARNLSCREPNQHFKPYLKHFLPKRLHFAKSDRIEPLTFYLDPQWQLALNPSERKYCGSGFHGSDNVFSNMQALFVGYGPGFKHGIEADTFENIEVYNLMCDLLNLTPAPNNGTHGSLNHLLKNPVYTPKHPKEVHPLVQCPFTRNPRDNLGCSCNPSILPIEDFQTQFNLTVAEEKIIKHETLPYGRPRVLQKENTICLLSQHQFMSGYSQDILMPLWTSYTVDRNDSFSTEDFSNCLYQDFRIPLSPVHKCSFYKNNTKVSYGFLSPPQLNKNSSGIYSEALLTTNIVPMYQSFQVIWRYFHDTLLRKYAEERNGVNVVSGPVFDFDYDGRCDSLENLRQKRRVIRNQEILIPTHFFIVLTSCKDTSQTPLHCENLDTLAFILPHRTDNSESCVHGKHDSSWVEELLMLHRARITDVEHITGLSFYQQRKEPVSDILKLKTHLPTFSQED

Drawing on patent publication US20230183239A1, “ECTONUCLEOTIDE PYROPHOSPHATASE-PHOSPHODIESTERASE 1 (ENPP-1) INHIBITORS AND USES THEREOF” (AbbVie Inc., priority 2017, published 2023), this text covers Ki and Substrate Selectivity: Ki AMP-pNP/Ki cGAMP for 1 compound.

Where only a bound is given, the exact number is not on record here.

As a reminder, the Ki is the equilibrium dissociation constant of an inhibitor or competing ligand from its target.

Consider `COc1cc2nccc(-c3ccc(CN(C4CC4)S(N)(=O)=O)cc3)c2cc1OC`, for which the Ki on ENPP1 [1] was 0.1 to 1 µM; on ENPP1 [2], less than 0.1 µM. Moreover, the Substrate Selectivity: Ki AMP-pNP/Ki cGAMP on ENPP1 [3] was greater than 37.
